These results are taken from article PMC9928118, “Funneling modulatory peptide design with generative models: Discovery and characterization of disruptors of calcineurin protein-protein interactions” (PLOS Computational Biology, 2023).

In general, Kd refers to the concentration at which binding is half-saturated. By IC50 is commonly meant the point on the concentration scale where inhibition reaches its midpoint.

For experiment [1], the target named is Calcineurin (Cn). The conditions noted are these: PVIVIT peptide; read-out: Dissociation constant kd for Cn; cited from earlier work.
Experiment [2] concerns GST-tagged Cn. Nature of the experiment: PEPperPRINT peptide microarray binding assay with GST-tagged Cn. An excerpt:
We then estimated in-silico the binding strength of the various peptides to Cn by template-based docking followed by flexible backbone refinement using Modeller and PepCrawler (Figs 4 and S4). In parallel, we performed a medium-throughput qualitative binding assay using a PEPperPRINT peptide microarray to evaluate the direct binding of Cn to selected peptides (Figs 4 and S5, S3 Data).
Fig 4 Medium-throughput filtering by structural modeling and microarray screening. (a) Depiction of the structural modeling protocol: after alignment to the known PxIxIT binding site, an efficient flexible backbone structure refinement algorithm is applied to estimate the docking energy. […] (f) Scatter plot of the sequence likelihood (normalized by length, higher is better) against fluorescence level (higher is better, see Methods for details of the data analysis).
In parallel, selected peptides were tested for Cn binding on a chip microarray (PEPperPRINT). […] Following extensive washing, binding was detected by applying a fluorescently labeled (Alexa-Fluor 647) GST antibody. […] The experiment was repeated five times, and Z-normalized fluorescence levels were determined following post-processing of the raw data (Methods, S5A, S5B and S5C Fig).
The peptide array was prepared as a custom array pepper chip (PEPperPRINT). […] Fluorescence levels were next averaged over the two ROI for each peptide and Z-normalized. […]

Experiment [3] relates to GST-tagged Cn. Described as above. The conditions noted are these: max over the duplicate spots (Location on chip).
Experiment [4] deals with T1, catalytic domain of Calcineurin (Cn A), residues 2-347 with Y341S, L343A, M347D (UniProt Q08209 2-347, Y341S | L343A | M347D).
T1 construct: Calcineurin catalytic domain (calcineurin A), residues 2-347, with substitutions Y341S, L343A, M347D; Expressed as a cleavable GST fusion; source: E. coli BL21, purified (Glutathione Sepharose 4 Fast Flow, size exclusion on Superdex 75)
Kind of experiment: fluorescence polarisation; competition: variable concentrations of non-labeled peptide added to 100 nM FITC-labeled PVIVIT peptide and 4 uM Cn A, 96-well plate, triplicate; fitted to a single site inhibition model. The conditions noted are these: both partners purified. In general terms: In fluorescence polarisation assays a small probe gives low polarisation when free and higher when bound to something large.

On to `CC[C@H](C)[C@H](NC(=O)[C@@H](NC(=O)[C@@H]1CCCN1C(=O)[C@H](Cc1c[nH]cn1)NC(=O)[C@@H]1CCCN1C(=O)CNC(=O)[C@H](C)NC(=O)[C@H](CCSC)NC(C)=O)C(C)C)C(=O)N[C@H](C(=O)N[C@H](C(=O)N[C@H](C(=O)NCC(=O)N1CCC[C@H]1C(=O)N[C@@H](Cc1c[nH]cn1)C(=O)N[C@@H](CCC(=O)O)C(=O)N[C@@H](CCC(=O)O)C(N)=O)[C@@H](C)O)[C@@H](C)CC)C(C)C` [PVIVIT, reference compound], for which the dissociation constant (Kd) in experiment [1] was 0.5 to 2 µM. In addition, the “Fluorescence level on the chip (Cn binding)” value in experiment [2] (1mg/ml GST-tagged Cn overnight at 4°C, Alexa-Fluor 647 GST antibody, Z-normalized, averaged over five repetitions, result in words) is “only weak fluorescence levels”. In the case of “MAGPHPVIVITGPHEE [PVIVIT-containing synthetic peptide]”, the “Chip Fluorescence (max)” value in experiment [3] came to 2.341. In experiment [2] (peptide microarray, GST-tagged Cn, mean over the duplicate spots (Location on chip)), the “Chip Fluorescence (mean)” value is 0.06582.

B1: PVIVIT peptide (non-labeled) (peptide)
peptide: MAGPHPVIVITGPHEE
modifications: N-terminal acetylation, C-terminal amidation
notes: PVIVIT, synthetic PxIxIT variant, positive control; source: synthetic peptide (peptide2 Inc)
Consider B1, for which the half-maximal inhibitory concentration (IC50) in experiment [4] came out at 10.2 µM.
